# Source: PubChem BioAssay AID652257 (The Scripps Research Institute Molecular Screening Center, 2013)
# Chains of the proteins cited; added tags and fusions are not shown.
# UniProt Q99873, whole entry: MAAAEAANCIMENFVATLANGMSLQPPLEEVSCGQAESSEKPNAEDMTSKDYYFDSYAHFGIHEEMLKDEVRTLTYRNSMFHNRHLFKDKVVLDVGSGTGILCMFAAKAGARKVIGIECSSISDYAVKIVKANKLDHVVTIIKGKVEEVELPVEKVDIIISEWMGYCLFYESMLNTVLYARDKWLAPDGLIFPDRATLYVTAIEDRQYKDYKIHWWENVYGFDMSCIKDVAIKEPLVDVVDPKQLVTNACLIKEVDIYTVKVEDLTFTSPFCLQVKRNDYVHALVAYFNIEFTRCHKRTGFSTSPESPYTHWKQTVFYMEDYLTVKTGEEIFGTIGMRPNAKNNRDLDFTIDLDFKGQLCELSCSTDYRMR
# The list shows a part of the results, in another mix than the full data. Activity calls are given as the source filed them.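 The calls were made as follows: active = inhibition above about 21% made by adding two undisclosed values (limit read from the data); inactive = the rest.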
# Molecular target: Protein arginine N-methyltransferase 1 (Homo sapiens) (UniProt Q99873)
# Test: human PRMT1 activity-probe blockers – biochemical, fluorescence polarization, primary screen (AID 652257)
# Conditions: recombinant PRMT1, activity-based probe fluorescence polarization; at 2.79 µM; hits give high values
row,Compound,inhibition
1,COC(=O)C1(Nc2ccccc2)CCN(Cc2ccccc2)CC1,inactive: -2.5%
2,COc1ccc(CN(CCCl)CCCl)cc1Cl,inactive: 8.06%
3,CC(C)c1ccc(NC2CCN(C(=O)OC(C)(C)C)CC2)cc1,inactive: 1.52%
4,CCCCn1nnnc1C(c1ccnc2ccccc12)N1CCC(n2c(=O)[nH]c3ccccc32)CC1 (stereo not given),inactive: -2.74%
5,O=C(NCC1(N2CCOCC2)CCCCC1)c1cc(F)c(F)cc1Cl,inactive: 1.35%
6,CCC(c1nnnn1C(C)(C)C)N1CCC(n2c(=O)[nH]c3ccccc32)CC1 (stereo not given),inactive: -3.1%
7,COc1cc(OC)c(C(=O)NCC2(N(C)C)CCCCC2)cc1OC,inactive: -1.74%
8,O=C(NCC1(N2CCCCC2)CCCCC1)c1cccc(C(F)(F)F)c1,inactive: -1.86%
9,CCCCn1nnnc1C(c1cccc2ccccc12)N1CCC(n2c(=O)[nH]c3ccccc32)CC1 (stereo not given),inactive: 1.83%
10,CN1CCN(CCOC(=O)C(O)(c2ccccc2)c2ccccc2)CC1,inactive: -0.62%
11,CC(C)c1ccc(C(=O)NCC2(N3CCOCC3)CCCCC2)cc1,inactive: 0.71%
12,COc1ccc(NC2CCN(C(=O)OC(C)(C)C)CC2)cc1,inactive: 6.27%
13,COc1cc(C(=O)NCC2(N3CCCCC3)CCCCC2)ccc1OC(F)F,inactive: -0.23%
14,O=C(NCC1(N2CCOCC2)CCCCC1)c1cc(=O)[nH]c2ccccc12,inactive: 6.87%
15,O=C(NCC1(N2CCCCC2)CCCCC1)c1ccc(OC(F)F)cc1,inactive: 0.01%
16,CC(C)(C)n1nnnc1C(c1ccccc1OC(F)(F)F)N1CCC(n2c(=O)[nH]c3ccccc32)CC1 (stereo not given),inactive: -2.8%
17,CSc1ccc(C(=O)NCC2(N3CCOCC3)CCCCC2)cc1,inactive: -2.72%
18,O=C(NCC1(N2CCCCC2)CCCCC1)c1cccc([N+](=O)[O-])c1,inactive: -5.95%
19,N#CC1(Nc2ccccc2)CCN(CCc2ccccc2)CC1,inactive: -2.26%
20,O=c1[nH]c2ccccc2n1C1CCN(C(c2ccccc2OC(F)(F)F)c2nnnn2C2CCCC2)CC1 (stereo not given),inactive: 2.97%
21,CCN1CCC(Nc2ccc(Cl)cc2)CC1,inactive: 3.27%
22,O=c1[nH]c2ccccc2n1C1CCN(C(c2ccccc2)c2nnnn2C2CCCCC2)CC1 (stereo not given),inactive: 4.61%
23,O=c1[nH]c2ccccc2n1C1CCN(C(c2cccc3ccccc23)c2nnnn2C2CCCC2)CC1 (stereo not given),inactive: -3.09%
24,COc1cc(C(=O)NCC2(N(C)C)CCCCC2)ccc1OC(F)F,inactive: 0.82%
25,CCOC(=O)N1CCC(Nc2cccc(C)c2)CC1,inactive: 4.02%
26,CCOc1ccc(C)cc1CN(CCCl)CCCl,inactive: -0.62%
27,O=C1CCN(Cc2ccccc2)CC1,inactive: 1.92%
28,CC(C)(C)n1nnnc1C(c1ccccc1)N1CCC(n2c(=O)[nH]c3ccccc32)CC1 (stereo not given),inactive: -2.93%

row,Compound,inhibition
1,COc1ccc(NC2CCN(CCc3ccccc3)CC2)c(OC)c1,inactive: 3.1%
2,CCOC(=O)N1CCC(Nc2ccc(F)cc2)CC1,inactive: 1.62%
3,O=C(NCC1(N2CCCCC2)CCCCC1)c1ccc(F)cc1,inactive: -3.46%
4,O=P1(N(CCCl)CCCl)SCCCS1,inactive: 1.56%
5,CCCCn1nnnc1C(c1cc2ccccc2o1)N1CCC(n2c(=O)[nH]c3ccccc32)CC1 (stereo not given),inactive: -3.17%
6,CCCCOc1ccc(C(=O)NCC2(N3CCOCC3)CCCCC2)cc1,inactive: -0.74%
7,O=C(NCC1(N2CCOCC2)CCCCC1)c1cc2ccccc2o1,inactive: -2.85%
8,Cc1cc(C)cc(N(C(=O)c2ccccc2)C2CCN(C(=O)OC(C)(C)C)CC2)c1,inactive: -2.14%
9,O=c1[nH]c2ccccc2n1C1CCN(C(c2ccccc2OC(F)(F)F)c2nnnn2C2CCCCC2)CC1 (stereo not given),inactive: -9.54%
10,O=C(NCC1(N2CCCCC2)CCCCC1)c1ccc(Cl)nc1,inactive: -0.09%
11,CCCCn1nnnc1C(c1ccc(OC)cc1)N1CCC(n2c(=O)[nH]c3ccccc32)CC1 (stereo not given),inactive: 5.8%
12,CCOC(=O)N1CCC(Nc2ccc(OC)cc2)CC1,inactive: 0.26%
13,COc1ccc(Cl)cc1C(=O)NCC1(N2CCOCC2)CCCCC1,inactive: -5.72%
14,O=C(OC1CN2CCC1CC2)C1c2ccccc2Oc2ccccc21 (stereo not given),inactive: 0.75%
15,O=c1[nH]c2ccccc2n1C1CCN(C(c2cc3ccccc3o2)c2nnnn2C2CCCCC2)CC1 (stereo not given),inactive: 6.58%
16,N#CC1(Nc2ccccc2)CCN(Cc2ccccc2)CC1,inactive: -2.23%
17,O=C(NCC1(N2CCCCC2)CCCCC1)c1ccc(Cl)s1,inactive: 0.37%
18,CCCCn1nnnc1C(c1cccs1)N1CCC(n2c(=O)[nH]c3ccccc32)CC1 (stereo not given),inactive: -7.18%
19,O=C(NCC1(N2CCCCC2)CCCCC1)c1cccs1,inactive: 1.16%
20,CCCCn1nnnc1C(CC)N1CCC(n2c(=O)[nH]c3ccccc32)CC1 (stereo not given),inactive: 2.71%
21,O=C(NCC1(N2CCCCC2)CCCCC1)c1ccc(=O)[nH]c1,inactive: 2.85%
22,CCC(c1nnnn1C1CCCC1)N1CCC(n2c(=O)[nH]c3ccccc32)CC1 (stereo not given),inactive: 4%
23,CC(C)(C)OC(=O)N1CCC(N(C(=O)c2ccccc2)c2ccc(F)cc2)CC1,inactive: -3.12%
24,COc1ccc(C(=O)NCC2(N3CCCCC3)CCCCC2)c(OC)c1OC,inactive: 4.82%
25,COc1ccc(C(=O)NCC2(N3CCCCC3)CCCCC2)cc1,inactive: 0.44%
26,Cc1cccc(NC2(C#N)CCN(Cc3ccccc3)CC2)c1,inactive: -1.35%
27,CSc1ccccc1C(=O)NCC1(N2CCCCC2)CCCCC1,inactive: 0.32%
